# Values of other authors, collected in patent US5744455A (priority 1993, dated 1998).
# System: myocardial lesions
# Details: in vivo
smiles,measurement,value
"C[C@@H](CN1CC(=O)NC(=O)C1)N1CC(=O)NC(=O)C1 [ICRF 187, (+)-1,2-bis(3,5-dioxopiperazinyl-1-yl)propane]",animals with cardiac lesions absent,two
same,animals with minimal cardiac lesions,five of the seven
